High-throughput results deposited in PubChem by National Center for Advancing Translational Sciences (NCATS).
Compounds with a hit are over-represented: about 2.2% of the library has one in this group of screens.
Nrf2 inh: blocks Nrf2 signaling; A549 ARE-Fluc reporter, luciferase luminescence, 18-24 h; Potency, µM (highest dose often 46 µM), without a hit: top-dose activity change, negative = inhibition, hits mostly inhibitors; 360,000 compounds, 2.1% hits; also: potency is read from the fitted curve at half-maximal effect; % is scaled to controls: 0 for no effect and ±100 for the full control effect; nearly all actives have a fitted effect of over 60% in size
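Nrf2 activity is the BugLite luminescence, read 15 min after reagent at room temperature, following CellTiter-Fluor cytotoxicity readout (30 min, 37C). Compound titrations were applied for 18-24 h to 5000 A549 ARE_Fluc cells/well in 5% FBS OPTI-MEM.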
A549 viability: A549 cytotoxicity, counter-screen for Nrf2 inhibitors; A549 ARE-Fluc cells, CellTiter-Fluor viability, 18-24 h; Potency, µM (top dose mostly 46 µM), without a hit: at the highest dose activity change, negative = cytotoxicity, usual class: inhibitors; 390,000 compounds, 0.16% hits; AID 504648; also: potency is read from the fitted curve at half-maximal effect; % is scaled to controls: 0 for no effect and ±100 for the full control effect
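A549 ARE_Fluc cells in 5% FBS OPTI-MEM were exposed to compounds in concentration-response for 18-24 h at 37 deg C. Viability was read by CellTiter-Fluor fluorescence (Ex 405/Em 525) after 30 min, before the luciferase read.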
miR-21 FLuc: miR-21 reporter, rising signal | HeLa miR-21 FLuc reporter, luciferase, 48 h | Potency, µM (top dose mostly 38.3 µM), inactives show at the highest dose reporter change, positive = more light | 340,000 tested, under 10 active | AID 2288; active = well fitted rising curve with a large enough effect; inconclusive = small, poorly fitted or top-dose-only effect; inactive = no such curve, though single readings can be large or run the other way;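 note: % of control where 0% means no effect; miR-21 action dims this reporter so a rising signal means less miR-21 action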
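HeLa cells stably expressing CMV-driven firefly luciferase with a downstream miR-21 binding sequence, endogenously expressing miR-21, were treated with titrations (up to about 40uM final) for 48 hours at 37 degree Celsius. Luciferase luminescence was read after lysis.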
PI4K2A block: blocks human PI4K2A kinase activity. Q9BTU6. purified PI4K2A, ADP-Glo luminescence, 1 h; active compounds read low. activity change, negative = inhibition, % at 76.9 µM. 420,000 compounds, 0.13% hits. AID 1346378; in the data active = activity change below about -50%; inconclusive = mostly about -30% to -49%;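 also: -100% = wells without enzyme as full effect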
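PI4K2A activity was measured by ADP-Glo luminescence: enzyme (4 ug/mL stock) and phosphatidylinositol (1.2 mM stock) in Tris pH 7.5/MgCl2/EGTA/Triton X-100 buffer were reacted with ATP (300 microM stock) for one hour at ambient temperature.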
Nrf2 activator: activates Nrf2 signaling; AREc32 ARE-luciferase reporter (MCF7-derived line), luminescence, 24 h; Potency, µM (titrated, usually from 46.1 µM), without a hit: at the top dose activation, hits mostly activators; 410,000 compounds, 0.31% hits; AID 624171; also: potency is read from the fitted curve at half-maximal effect; % of control where 0% means no effect; nearly all actives have a fitted effect of over 65% in size
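AREc32 cells carrying an ARE-driven firefly luciferase, 1000 cells/well in OPTI-MEM with 5% FBS, dosed after overnight attachment and incubated 24 hr at 37 deg C. Steady-Glo luminescence read after 30 min at RT.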
GALK inhibitor: galactokinase (human) inhibition; Purified GALK, Kinase-Glo residual ATP luminescence; P51570; Potency, µM (highest dose often 57.5 µM), inactives show at the highest dose activity change, negative = inhibition, hits mostly inhibitors; 270,000 compounds, 0.007% hits; also: potency is read from the fitted curve at half-maximal effect; % is scaled to controls: 0 for no effect and ±100 for the full control effect
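Quantitative HTS: GALK 5 nM, ATP 35 uM, galactose 100 uM, 1 h room temperature, then luciferase-based ATP detection.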
* marks the source's active call; other numbers are inactive results; ? = inconclusive; · = no result. Unless noted, calls follow the shape of the dose curve; as a rule, active = well fitted curve in the direction sought with a large enough effect; inconclusive = small, poorly fitted or top-dose-only effect, or another doubt; inactive = no such curve, though single readings can be large; an effect the other way counts as inactive or inconclusive.

nr | mol | PI4K2A block | Nrf2 inh | GALK inhibitor
1 | CCc1ccccc1NC(=S)NCCSc1ccc(Cl)cc1 | 5.3 | 23.1µM* | -1.7%
2 | Cc1ccc(NC(=S)NCCSc2ccc(Cl)cc2)c(C)c1 | 2.9 | 2.3% | 1.6%
3 | Cc1ccc(C)c(NC(=S)NCCSc2ccc(Cl)cc2)c1 | -3.4 | -13.8% | -3.6%
4 | O=C(NCC(c1ccccc1)c1ccccc1)[C@H](Cc1ccccc1)NC1(C(=O)NC2CCCCC2)CCOCC1 | -3.3 | · | ·
5 | COc1ccc(OC)c(C2=Nn3c(nnc3-c3cccc(OC)c3OC)SC2)c1 | · | 2.8% | ·
6 | COc1ccc2c(c1)CCCN2C(=O)C1CCCN(S(=O)(=O)c2cccc3cccnc23)C1 (stereo unspecified) | 0.5 | · | ·
7 | Cc1c(C(=O)NCCSCc2c(Cl)cccc2Cl)cccc1[N+](=O)[O-] | 2.7 | 9.2µM* | -0.7%
8 | O=C(Nc1ccccc1O)c1cccc(NC(=O)c2ccco2)c1 | 1.2 | 9.4% | 1.0%

nr | Nrf2 activator | A549 viability | miR-21 FLuc
1 | -0.4% | ? | 17.4%
2 | -0.6% | 10.0% | 3.9%
3 | -0.6% | ? | -3.4%
4 | · | · | ·
5 | · | 1.5% | ·
6 | · | · | ·
7 | -0.4% | -2.4% | -5.1%
8 | 7.94µM* | 0.3% | -7.2%

Arranged by count of non-hydrogen atoms (rising): part of the list above
nr | mol | PI4K2A block | Nrf2 inh | GALK inhibitor
3 | Cc1ccc(C)c(NC(=S)NCCSc2ccc(Cl)cc2)c1 | -3.4 | -13.8% | -3.6%
8 | O=C(Nc1ccccc1O)c1cccc(NC(=O)c2ccco2)c1 | 1.2 | 9.4% | 1.0%
6 | COc1ccc2c(c1)CCCN2C(=O)C1CCCN(S(=O)(=O)c2cccc3cccnc23)C1 (stereo unspecified) | 0.5 | · | ·

nr | Nrf2 activator | A549 viability | miR-21 FLuc
3 | -0.6% | ? | -3.4%
8 | 7.94µM* | 0.3% | -7.2%
6 | · | · | ·

The results go on:
nr | mol | PI4K2A block | Nrf2 inh | GALK inhibitor
9 | O=C(Nc1cccc(F)c1)c1ccco1 | 3.4 | 9.4% | 1.1%
10 | O=C(/C=C/c1ccc(Cl)c([N+](=O)[O-])c1)Nc1cccc(NC(=O)c2ccco2)c1 | -7.2 | -8.8% | 0.2%
11 | O=C(Nc1ccccc1O)c1ccc(C(=O)c2ccccc2)o1 | -3.7 | 16.3% | -2.3%
12 | O=C(/C=C/c1cccc([N+](=O)[O-])c1)Nc1cccc(NC(=O)c2ccco2)c1 | -3.6 | 20.6µM* | -1.6%
13 | CC(=O)Nc1cccc(NC(=O)c2ccco2)c1 | 4.0 | 3.2% | 1.3%
14 | O=C(Nc1ccccc1C(F)(F)F)OCCN1C(=O)CCC12CCC(c1ccccc1)CC2 (stereo unspecified) | -0.7 | · | ·
15 | C/C(N)=C(/C#N)C(=O)CSc1nnc(SCc2ccc(Cl)cc2)s1 | -2.5 | 20.6µM* | -0.9%
16 | C/C(N)=C(/C#N)C(=O)CSc1nn(-c2ccc(Cl)cc2)c(=S)s1 | 1.0 | -54.0% | 12.9%

nr | Nrf2 activator | A549 viability | miR-21 FLuc
9 | 10µM* | -3.4% | -27.5%
10 | 15.3% | -3.4% | -11.4%
11 | 12.6µM* | -0.1% | -42.7%
12 | 2.5% | ? | 1.4%
13 | 8.8% | -3.7% | -0.1%
14 | · | · | ·
15 | 6.1% | -14.7% | 0.9%
16 | 6.7% | -0.1% | -37.3%

Individual results from above:
entry 10 in Nrf2 inh has -8.8%
entry 11 in Nrf2 activator has 12.6µM*
entry 15 in PI4K2A block has -2.5

The results go on:
nr | mol | PI4K2A block | Nrf2 inh | GALK inhibitor
17 | Cc1cc(C(=O)NC2CCCc3c2cnn3-c2ccc(C(C)(C)C)cc2)nn1C (stereo unspecified) | -1.7 | 2.59µM* | -5.7%
18 | Cc1cc(C)cc(-n2ncc3c2CCCC3NC(=O)c2cc(C)n(C)n2)c1 (stereo unspecified) | -2.0 | -12.8% | 0.2%
19 | CCCCCCCCN1C(=O)[C@@H](CC(=O)N2CCCCC2)C[C@@]2(C(=O)OC)C1=C[C@H](C(C)C)O[C@@H]2C1CC1 | -4.7 | · | ·
20 | COC(=O)[C@H]1C[C@]2(C(/C=C(\C)CCC=C(C)C)S(=O)(=O)c3ccccc3)c3ccccc3N[C@H]2N1 (stereo partly specified) | -1.0 | · | ·
21 | O=C(NC(Cc1c[nH]c2ccccc12)C(=O)Nc1ccc(OC(F)(F)F)cc1)c1cccs1 (stereo unspecified) | -2.6 | ? | ·
22 | CC(C)(C)OC(=O)NCC(=O)NNC(=O)c1nc2ccccc2[nH]1 | · | -5.3% | ·
23 | CN(C(=O)c1cccc(NC(=O)Cc2ccc([N+](=O)[O-])cc2)c1)C1CC1 | -0.8 | 20.6µM* | ·
24 | CN(C(=O)c1cccc(NC(=O)Cc2cccc([N+](=O)[O-])c2)c1)C1CC1 | -1.1 | ? | ·
25 | COc1cc(NC(=O)CN2C(=O)NC(c3ccccc3)(c3ccccc3)C2=O)c(C)cc1[N+](=O)[O-] | 1.0 | 29.1µM* | -0.3%
26 | COc1cccc2nc3cc(C)c(C)cc3nc12 | -74.7* | ? | -2.3%

nr | Nrf2 activator | A549 viability | miR-21 FLuc
17 | 3.0% | -21.3% | 25.9%
18 | 0.7% | 3.5% | 0.6%
19 | · | · | ·
20 | · | · | ·
21 | -0.7% | 23.1µM* | 26.5%
22 | · | 6.8% | ·
23 | 3.1% | -5.8% | ·
24 | -0.9% | -4.6% | ·
25 | 5.9% | -16.6% | 3.4%
26 | ? | -13.4% | 5.2%
